The target of this experiment is Cyclooxygenase (Homo sapiens, UniProt P35354+P23219). Description: Inhibition of human platelet Prostaglandin G/H synthase.

Sequences of proteins named here, by UniProt entry; tags and fusion partners are left off. A change or cut given only in a name is not applied to a line headed by its entry.
UniProt P35354: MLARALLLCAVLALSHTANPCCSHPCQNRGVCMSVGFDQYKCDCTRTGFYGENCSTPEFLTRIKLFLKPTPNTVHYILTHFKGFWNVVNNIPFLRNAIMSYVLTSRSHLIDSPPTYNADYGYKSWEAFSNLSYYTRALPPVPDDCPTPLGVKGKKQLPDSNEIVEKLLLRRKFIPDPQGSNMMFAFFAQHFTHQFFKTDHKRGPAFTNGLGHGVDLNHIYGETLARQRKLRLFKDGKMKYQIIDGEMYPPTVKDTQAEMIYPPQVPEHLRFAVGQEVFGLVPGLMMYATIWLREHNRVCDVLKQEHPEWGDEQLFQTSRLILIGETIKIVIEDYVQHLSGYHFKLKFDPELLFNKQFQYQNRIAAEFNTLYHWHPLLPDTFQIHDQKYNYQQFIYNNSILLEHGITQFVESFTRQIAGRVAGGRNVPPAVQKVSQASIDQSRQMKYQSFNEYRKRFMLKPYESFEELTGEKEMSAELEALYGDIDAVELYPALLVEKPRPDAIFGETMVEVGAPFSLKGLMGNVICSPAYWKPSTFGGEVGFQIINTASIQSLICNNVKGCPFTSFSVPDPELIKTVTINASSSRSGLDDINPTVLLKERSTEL
UniProt P23219: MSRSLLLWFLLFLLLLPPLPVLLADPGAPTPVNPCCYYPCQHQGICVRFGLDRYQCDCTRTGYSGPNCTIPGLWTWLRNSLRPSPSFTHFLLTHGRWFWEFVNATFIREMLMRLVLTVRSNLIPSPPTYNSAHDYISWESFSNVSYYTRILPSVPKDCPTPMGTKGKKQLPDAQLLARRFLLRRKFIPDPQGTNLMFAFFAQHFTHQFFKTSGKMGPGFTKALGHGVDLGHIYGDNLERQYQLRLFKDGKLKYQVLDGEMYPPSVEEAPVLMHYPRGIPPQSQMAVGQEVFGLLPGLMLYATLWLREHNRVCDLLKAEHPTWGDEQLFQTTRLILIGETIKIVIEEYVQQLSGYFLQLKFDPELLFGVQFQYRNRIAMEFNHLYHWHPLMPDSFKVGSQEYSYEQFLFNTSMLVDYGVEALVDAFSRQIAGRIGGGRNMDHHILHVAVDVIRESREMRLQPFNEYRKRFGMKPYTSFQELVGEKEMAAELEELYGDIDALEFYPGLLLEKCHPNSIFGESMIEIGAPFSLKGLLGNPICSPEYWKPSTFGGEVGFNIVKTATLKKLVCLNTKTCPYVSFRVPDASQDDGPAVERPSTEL

Take `CC(C)(C)c1cc(/C=C/c2cccnc2)cc(C(C)(C)C)c1O`: the IC50 (usually the point on the concentration scale where inhibition reaches its midpoint) turned out to be 260 nM.

For the origin of these results see ChEMBL document CHEMBL1124816, “Effect of structure on potency and selectivity in 2,6-disubstituted 4-(2-arylethenyl)phenol lipoxygenase inhibitors” (J Med Chem, 1990).
